Experiments:
[1] = biological target: 72 kDa type IV collagenase (Homo sapiens, UniProt P08253); test: Assay for Inhibition of MMP
Interstitial collagenase = biological target: T1, Interstitial collagenase (Homo sapiens, UniProt P03956); test: Assay for Inhibition of MMP
T1 sequence (P03956 whole entry): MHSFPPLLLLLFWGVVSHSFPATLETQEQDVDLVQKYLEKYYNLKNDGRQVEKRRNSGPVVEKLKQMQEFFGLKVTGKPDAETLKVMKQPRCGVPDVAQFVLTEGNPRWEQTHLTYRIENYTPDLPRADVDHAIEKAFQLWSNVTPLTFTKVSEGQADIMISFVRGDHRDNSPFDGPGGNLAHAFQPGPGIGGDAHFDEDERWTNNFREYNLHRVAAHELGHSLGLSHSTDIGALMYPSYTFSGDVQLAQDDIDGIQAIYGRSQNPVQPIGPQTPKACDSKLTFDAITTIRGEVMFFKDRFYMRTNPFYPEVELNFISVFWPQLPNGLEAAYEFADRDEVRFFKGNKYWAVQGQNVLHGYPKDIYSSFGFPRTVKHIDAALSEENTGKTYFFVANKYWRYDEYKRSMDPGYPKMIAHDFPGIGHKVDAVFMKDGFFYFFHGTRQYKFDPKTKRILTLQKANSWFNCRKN

Chains of the proteins cited; added tags and fusions are not shown. Lines headed by an entry give the natural chain unless they say otherwise; changes in a name come on top.
UniProt P08253: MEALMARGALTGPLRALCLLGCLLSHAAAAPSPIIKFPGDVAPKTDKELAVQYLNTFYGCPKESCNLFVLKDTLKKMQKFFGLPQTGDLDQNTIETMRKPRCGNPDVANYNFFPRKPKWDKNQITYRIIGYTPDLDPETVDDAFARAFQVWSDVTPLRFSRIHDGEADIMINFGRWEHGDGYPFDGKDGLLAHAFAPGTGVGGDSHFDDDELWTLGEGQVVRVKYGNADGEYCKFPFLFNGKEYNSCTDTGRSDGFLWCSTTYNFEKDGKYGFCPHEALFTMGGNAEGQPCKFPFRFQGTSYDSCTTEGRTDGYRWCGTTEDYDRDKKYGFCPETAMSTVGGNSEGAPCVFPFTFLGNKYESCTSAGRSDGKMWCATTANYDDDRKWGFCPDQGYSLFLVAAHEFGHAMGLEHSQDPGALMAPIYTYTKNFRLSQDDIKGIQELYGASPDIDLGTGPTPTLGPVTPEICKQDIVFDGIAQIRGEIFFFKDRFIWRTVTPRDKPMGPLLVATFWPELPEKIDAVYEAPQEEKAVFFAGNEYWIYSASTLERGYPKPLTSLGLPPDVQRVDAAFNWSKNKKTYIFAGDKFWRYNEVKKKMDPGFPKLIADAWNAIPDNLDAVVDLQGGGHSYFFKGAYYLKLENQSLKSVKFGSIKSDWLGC

In the case of `C#CCN1CCC(C(=O)NOC2CCCCO2)(S(=O)(=O)c2ccc(Oc3ccc(OC(F)(F)F)cc3)cc2)CC1` (configuration not stated) [US20240050571, Compound 9], the IC50 [1] is reported as 0.24 nM and the IC50 (Interstitial collagenase) is reported as 860 nM.
